In experiment [1] the test system is endogenous muscarinic acetylcholine receptor. The experiment is described as follows: Endogenous muscarinic acetylcholine receptor response in HEK cells. Format: cell-based. The settings on record: carbachol. The text has this: (§1) “Detection thresholds” are defined as the lower limit of detectable tastants. The detection threshold values were averaged over four trials for three subjects. […] The activities in B, C, E and F represent the mean±SE of fold increases in fluorescence intensities for four recorded wells. The dose-responses in B, C, E and F were reproduced at least 6 times independently.

By UniProt entry, the sequences of proteins in these tests, tags left out. Residues count along the entry.
UniProt Q7RTX0, 21-852 C757R: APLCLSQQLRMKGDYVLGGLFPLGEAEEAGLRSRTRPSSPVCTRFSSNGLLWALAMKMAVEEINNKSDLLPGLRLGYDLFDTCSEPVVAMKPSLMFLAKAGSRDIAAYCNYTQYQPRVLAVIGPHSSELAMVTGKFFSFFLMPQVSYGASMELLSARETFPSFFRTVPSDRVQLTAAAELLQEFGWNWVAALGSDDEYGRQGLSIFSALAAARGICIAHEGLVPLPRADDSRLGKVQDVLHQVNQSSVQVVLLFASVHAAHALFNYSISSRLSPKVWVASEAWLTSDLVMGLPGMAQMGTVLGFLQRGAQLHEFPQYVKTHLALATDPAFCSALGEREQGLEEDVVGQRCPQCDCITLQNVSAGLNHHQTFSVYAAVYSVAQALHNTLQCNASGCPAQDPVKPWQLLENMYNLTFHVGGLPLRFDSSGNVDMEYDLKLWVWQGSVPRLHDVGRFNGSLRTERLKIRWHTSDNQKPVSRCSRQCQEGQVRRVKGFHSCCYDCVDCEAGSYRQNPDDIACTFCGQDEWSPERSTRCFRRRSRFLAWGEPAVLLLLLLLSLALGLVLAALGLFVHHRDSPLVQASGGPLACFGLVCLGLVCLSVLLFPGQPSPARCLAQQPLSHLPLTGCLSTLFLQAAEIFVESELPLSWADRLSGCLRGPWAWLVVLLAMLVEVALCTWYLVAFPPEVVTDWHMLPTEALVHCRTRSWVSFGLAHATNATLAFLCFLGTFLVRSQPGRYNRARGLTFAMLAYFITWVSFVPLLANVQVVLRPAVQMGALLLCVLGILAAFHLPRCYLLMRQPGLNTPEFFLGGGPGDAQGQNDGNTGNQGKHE
UniProt Q7RTX1, 21-841: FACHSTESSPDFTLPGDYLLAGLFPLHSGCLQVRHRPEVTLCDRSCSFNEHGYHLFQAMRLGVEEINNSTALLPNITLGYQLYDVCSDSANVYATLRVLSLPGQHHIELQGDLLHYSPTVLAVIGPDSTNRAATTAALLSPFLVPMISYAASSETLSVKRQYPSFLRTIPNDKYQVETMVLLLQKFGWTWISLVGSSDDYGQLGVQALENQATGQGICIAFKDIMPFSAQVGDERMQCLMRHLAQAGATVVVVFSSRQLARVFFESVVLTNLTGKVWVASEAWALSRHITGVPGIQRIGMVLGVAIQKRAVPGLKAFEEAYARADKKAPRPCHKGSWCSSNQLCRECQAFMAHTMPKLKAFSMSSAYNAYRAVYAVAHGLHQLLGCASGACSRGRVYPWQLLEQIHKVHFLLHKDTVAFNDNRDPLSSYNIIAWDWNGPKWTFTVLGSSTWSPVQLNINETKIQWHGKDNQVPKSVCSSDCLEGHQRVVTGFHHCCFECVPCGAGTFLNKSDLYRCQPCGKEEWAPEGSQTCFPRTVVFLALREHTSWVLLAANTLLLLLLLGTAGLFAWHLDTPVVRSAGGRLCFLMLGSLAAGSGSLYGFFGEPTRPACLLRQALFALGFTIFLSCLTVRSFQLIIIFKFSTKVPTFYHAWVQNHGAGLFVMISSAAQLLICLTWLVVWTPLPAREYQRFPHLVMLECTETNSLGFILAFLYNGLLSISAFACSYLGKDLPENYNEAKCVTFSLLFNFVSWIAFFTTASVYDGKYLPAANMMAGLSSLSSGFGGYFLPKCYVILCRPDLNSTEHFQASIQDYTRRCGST

The target of experiment [2] is T1R1/T1R3 (Homo sapiens (Human), UniProt Q7RTX0+Q7RTX1). Description: FLIPR dose responses of human T1R1/T1R3 stable cell line with modulators. It is filed as cell-based. The settings on record: cyclamate 8 mM, in the presence or absence of IMP.
From the text: as §1
Human cell lines that stably co-express human T1R2/T1R3 or human T1R1/T1R3 were generated by transfecting linearized PEAK10-derived (Edge Biosystems) vectors and pcDNA 3.1/ZEO-derived (Invitrogen) vectors respectively containing hT1R1 or hT1R2 expression construct (plasmid SAV2485 for T1R1, SAV2486 for T1R2) and hT1R3 (plasmid SXV550 for T1R3) into a Gα15 expressing cell line. […] Following SAV2485/SXV550 and SAV2486/SXV550 transfections, puromycin-resistant and zeocin-resistant colonies were selected, expanded, and tested by calcium imaging for responses to sweet or umami taste stimuli. Cells were selected in 0.0005 mg/ml puromycin (CALBIOCHEM) and 0.1 mg/ml zeocin (Invitrogen) at 37° C. in low-glucose DMEM supplemented with GlutaMAX, 10% dialyzed FBS, and 0.003 mg/ml blasticidin. Resistant colonies were expanded, and their responses to sweet taste stimuli evaluated by Fluorescence microscopy. […]

As for `O=S(=O)(O)NC1CCCCC1` [cyclamate], the “effect on endogenous muscarinic acetylcholine receptor response” value in experiment [1] is listed as “no effect”. The “left-shift of dose-response curves for L-glutamate” value in experiment [2] is recorded as ~2 fold.
